Patent publication US8907092B2, “Inhibitors of IAP” (Genentech, Inc., priority 2007, dated 2014)

Chains of the proteins cited; added tags and fusions are not shown. A line that says so, or that is headed by a name, gives the form on record, which may keep a tag or linker. Residues count along the entry.
UniProt Q96CA5, 63-159 with tags or gaps S150G limits assumed: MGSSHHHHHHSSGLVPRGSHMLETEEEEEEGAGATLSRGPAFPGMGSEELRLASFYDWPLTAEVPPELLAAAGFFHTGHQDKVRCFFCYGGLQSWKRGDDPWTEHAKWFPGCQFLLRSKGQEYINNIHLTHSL

Molecular target: MLXBIR3SG (Homo sapiens, UniProt Q96CA5, S150G)
Test: Fluorescence Polarization Peptide Binding Assay
Settings: competition with 5 nM AVP-diPhe-FAM probe, MLXBIR3SG at 30 nM
Description: In the following experiments was used a chimeric BIR domain referred to as MLXBIR3SG in which 11 of 110 residues correspond to those found in XIAP-BIR3, while the remainder correspond to ML-IAP-BIR. […] The improved caspase-9 inhibition of the chimeric BIR domain MLXBIR3SG has been correlated with increased inhibition of doxorubicin-induced apoptosis when transfected into MCF7 cells. […]
The reactions were read after an incubation time of 10 minutes at room temperature with standard cut-off filters for the fluorescein fluorophore (λex=485 nm; λem=530 nm) in 96-well black HE96 plates (Molecular Devices Corp.). Fluorescence values were plotted as a function of the protein concentration, and the IC50s were obtained by fitting the data to a 4-parameter equation using Kaleidograph software (Synergy software, Reading, Pa.). […] Samples were read after a 10-minute incubation. Fluorescence polarization values were plotted as a function of the antagonist concentration, and the IC50 values were obtained by fitting the data to a 4-parameter equation using Kaleidograph software (Synergy software, Reading, Pa.) Inhibition constants (Ki) for the antagonists were determined from the IC50 values.

Q: How did the IC50 turn out when `CCCC(=O)Nc1nc(-c2ccccc2)c(NC(=O)[C@@H]2CCCN2C(=O)[C@@H](NC(=O)[C@H](C)NC)C2CCN(C(=O)NCCCCNC(=O)N3CCC([C@H](NC(=O)[C@H](C)NC)C(=O)N4CCC[C@H]4C(=O)Nc4sc(NC(=O)CCC)nc4-c4ccccc4)CC3)CC2)s1` was run?
A: 231 nM

Q: Which IC50 does the source give for `CCCC(=O)Nc1nc(-c2ccccc2)c(NC(=O)[C@@H]2CCCN2C(=O)[C@@H](NC(=O)[C@H](C)NC)C2CCN(C(=O)NCCCCCCNC(=O)N3CCC([C@H](NC(=O)[C@H](C)NC)C(=O)N4CCC[C@H]4C(=O)Nc4sc(NC(=O)CCC)nc4-c4ccccc4)CC3)CC2)s1` here?
A: 279 nM
